{"sequences": {"note": "Amino acid sequences for entries named in this document (tags omitted).", "UniProt P30551, whole entry": "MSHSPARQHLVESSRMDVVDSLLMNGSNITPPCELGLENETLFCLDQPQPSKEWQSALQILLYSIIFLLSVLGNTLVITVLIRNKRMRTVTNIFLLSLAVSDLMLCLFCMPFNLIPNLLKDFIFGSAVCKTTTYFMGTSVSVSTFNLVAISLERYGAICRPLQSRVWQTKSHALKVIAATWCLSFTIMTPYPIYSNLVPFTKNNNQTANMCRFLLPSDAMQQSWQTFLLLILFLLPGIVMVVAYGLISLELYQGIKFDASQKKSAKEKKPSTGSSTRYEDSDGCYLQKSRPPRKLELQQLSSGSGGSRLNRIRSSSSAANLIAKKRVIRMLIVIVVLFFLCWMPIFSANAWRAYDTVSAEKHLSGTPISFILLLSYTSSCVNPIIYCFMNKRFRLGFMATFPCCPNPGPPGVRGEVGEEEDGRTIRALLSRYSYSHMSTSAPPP"}, "source": "ChEMBL document CHEMBL1127104", "about": "“L-708,474: The C5-cyclohexyl analogue of L-365,260, a selective high affinity ligand for the CCKB/gastrin receptor” (Bioorg Med Chem Lett, 1993)", "target": "Cholecystokinin receptor type A (Rattus norvegicus, UniProt P30551)", "test": "In vitro test for inhibition of [125I]CCK binding to Cholecystokinin type A receptor from rat pancreatic tissues was determined", "data": [{"molecule": "Cc1cccc(NC(=O)N[C@H]2N=C(C3CCCCC3)c3ccccc3N(C)C2=O)c1", "values": [{"measurement": "IC50", "result": 0.455, "unit": "nM"}]}]}
